# AlphaSeq binding of Ab-14 light chain variants to a spike HR2 peptide

Target: peptide PDVDLGDISGINAS, taken from heptad repeat 2 (HR2) of SARS-CoV-2 spike.

The variants keep the heavy chain, the linker and the frameworks of Ab-14 (scFv order VH, a (GGGGS)3 linker, VL).
VH: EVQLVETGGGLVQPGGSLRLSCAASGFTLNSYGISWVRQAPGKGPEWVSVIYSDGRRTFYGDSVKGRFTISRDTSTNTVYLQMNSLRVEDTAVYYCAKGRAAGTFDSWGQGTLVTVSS
VL: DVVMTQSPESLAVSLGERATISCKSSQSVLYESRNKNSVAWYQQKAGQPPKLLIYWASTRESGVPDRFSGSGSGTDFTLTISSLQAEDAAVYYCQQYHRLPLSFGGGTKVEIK

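The parent was found by panning a naive human phage display library on the peptide. The library (AAYL50) carries one to three amino acid substitutions per variant, with no insertions or deletions. The assay is AlphaSeq: two haploid yeast populations carry antibody and antigen on their surface. The frequency of each diploid, read from paired DNA barcodes, reflects how well the two displayed proteins bind. Each replicate has its own calibration line, from reference interactions of the BCL2 family. There are three technical replicates.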

Positions count from residue 1 of the parent VL; K36V puts V in place of K. This list gathers variants with a substitution at Q95 (VL, numbered from residue 1). Values are apparent Kd, the geometric mean of the replicates that gave a signal; lower means stronger binding. An entry "nd" has no value in the source: the pair was not observed among the diploids in any replicate. This suggests poor binding but is not conclusive. Parent in this assay: reference entry 4.4 nM, copy in this library 48 nM. Three control strains display no target. For library AAYL50, 18% of the pairings with them gave a signal, with a median of 15 µM and one signal in twenty below 970 nM, so weak values seen in few replicates may be background.

Variant K36V+Q95P+Y97H gave 210 µM (1 of 3 replicates). For S38G+V39R+Q95H, the assay gave nd (0 of 3 replicates). Variant E32D+A57S+Q95K gave nd (0 of 3 replicates). For W56Q+Q95C+Q96D, the assay gave 49 nM (3 of 3 replicates). Variant S28D+S62C+Q95I gave 2.2 µM (1 of 3 replicates). For A40T+Q95D+S103P, the assay gave nd (0 of 3 replicates). Variant S25N+S58V+Q95F gave 11 µM (2 of 3 replicates).

With Q27S+Q95P+L102R the result was nd (0 of 3 replicates). Variant R60A+Q95E+Y97M showed 85 µM (1 of 3 replicates). For Y31R+E32F+Q95M, the assay gave 1.8 µM (1 of 3 replicates). Variant S26R+S28D+Q95T gave 2.7 µM (1 of 3 replicates). Variant N37D+Q95C+S103G gave 7.7 nM (3 of 3 replicates). Variant S58M+Q95F+S103H gave nd (0 of 3 replicates). Variant Q95K+P101W+L102W showed nd (0 of 3 replicates).

Variant E61P+Q95M+R99H showed 56 µM (1 of 3 replicates). For Q95R+H98G, the assay gave 34 nM (3 of 3 replicates). For K24R+Q95T+L102P, the assay gave 98 µM (2 of 3 replicates). Variant T59M+Q95S+R99S gave 470 nM (1 of 3 replicates). With R34L+W56E+Q95F the result was 670 pM (3 of 3 replicates). Variant K36Y+V39T+Q95N gave nd (0 of 3 replicates). Variant Y31H+N37K+Q95E gave 32 nM (3 of 3 replicates).

Variant K24Y+Q95Y+L102I gave 12 µM (1 of 3 replicates). Variant R34F+Q95A+H98S showed 15 nM (3 of 3 replicates). Variant R34I+N37L+Q95F gave nd (0 of 3 replicates). With R34W+Q95E the result was 290 µM (3 of 3 replicates). Variant N37Y+V39N+Q95R gave nd (0 of 3 replicates). Variant S62K+Q95D+L102Q gave 38 nM (3 of 3 replicates). Variant S25Q+R34N+Q95M gave 20 nM (3 of 3 replicates).

Variant Y31F+K36P+Q95N gave 3.9 µM (1 of 3 replicates). For Q95I, the assay gave 23 µM (1 of 3 replicates). Variant Q95N+Q96A+P101W gave 300 nM (3 of 3 replicates). With Y31I+Q95A+L100K the result was 330 nM (2 of 3 replicates). Variant S26Q+S33F+Q95V showed 390 µM (1 of 3 replicates). Variant S38L+Q95L+S103M showed 350 µM (2 of 3 replicates). Variant Q95Y+Q96L+L102N gave 39 µM (1 of 3 replicates).

For Q95D+Q96F+H98M, the assay gave nd (0 of 3 replicates). For E32H+A57T+Q95G, the assay gave nd (0 of 3 replicates). With Q95A+L100R+L102H the result was nd (0 of 3 replicates). For S25D+Q95E+H98P, the assay gave nd (0 of 3 replicates). Variant A57L+T59F+Q95E gave 1.8 µM (1 of 3 replicates). For N37T+E61W+Q95N, the assay gave nd (0 of 3 replicates). For S25G+N37R+Q95T, the assay gave 1.9 µM (1 of 3 replicates).

With S26E+Q27F+Q95D the result was 5.8 nM (3 of 3 replicates). With R60S+Q95C+R99N the result was 59 µM (3 of 3 replicates).

The closing 5 entries, repeated:

changes,Kd (apparent),detected
A57L+T59F+Q95E,1.8 µM,1/3
N37T+E61W+Q95N,nd,0/3
S25G+N37R+Q95T,1.9 µM,1/3
S26E+Q27F+Q95D,5.8 nM,3/3
R60S+Q95C+R99N,59 µM,3/3

From the AlphaSeq antibody data of Engelhart et al. 2022 (doi:10.1038/s41597-022-01779-4), copy in the FLAb collection.